Consider one compound from US9670166B2, “Substituted bicyclic dihydropyrimidinones and their use as inhibitors of neutrophil elastase activity” (Boehringer Ingelheim International GmbH, priority 2013, dated 2017).

This data set is described as follows: Metabolic stability with human hepatocytes. As to conditions: human hepatocyte suspension, 1 μM, scaled by well stirred model. It counts as in vitro ADME. The method, then: Human hepatocytes (typically cryopreserved) are incubated in an appropriate buffer system (e.g. Dulbecco's modified eagle medium plus 3.5 μg glucagon/500 mL, 2.5 mg insulin/500 mL and 3.75 mg/500 mL hydrocortisone) containing 5% species serum. Following a (typically) 30 min preincubation in an incubator (37° C., 10% CO2), 5 μl of test compound solution (80 μM; from 2 mM stock solution in DMSO diluted 1:25 with medium) are added into 395 μl hepatocyte suspension (cell density in the range 0.25-5*10^6 cells/mL, typically 1*10^6 cells/mL; final concentration of test compound 1 μM, final DMSO concentration 0.05%). […] The decline of parent compound is analyzed by LC-MS/MS.
The intrinsic clearance CL_[…] is calculated as follows: CL_[…]=Dose/AUC=(C0/CD)/(AUD+clast/k)*1,000/60 […]
The calculated in vitro hepatic intrinsic clearance can be scaled up to the intrinsic in vivo hepatic clearance and used to predict hepatic in vivo blood clearance (CL) by the use of a liver model (well stirred model): CL_[…]_INVIVO [ml/min/kg]=(CL_[…] [μL/min/10^6 cells]*hepatocellularity [10^6 cells/g liver]*liver factor [g/kg bodyweight])/1,000 CL [ml/min/kg]=CL_[…]_INVIVO [ml/min/kg]*hepatic blood flow [ml/min/kg]/(CL_[…]_INVIVO [ml/min/kg]+hepatic blood flow [ml/min/kg]) Qh [%]=CL [ml/min/kg]/hepatic blood flow [ml/min/kg]) […]

For `CS(=O)(=O)c1cc(C#N)ccc1C1C2=C(CCC2=O)N(c2cccc(C(F)F)c2)C(=O)N1C(=O)NC1CC1` (stereo not shown) [Example 53.3], the “CL (predicted human hepatic in vivo blood clearance)” value is 0 L/h/kg.
